Experimental findings from patent US20260207704A1, “STAPLED PEPTIDES AND METHODS THEREOF” (priority 2022, published 2026) are described below.

Protein sequences, listed by entry. Tags and fused reporters are not part of them.
UniProt P35222, whole entry: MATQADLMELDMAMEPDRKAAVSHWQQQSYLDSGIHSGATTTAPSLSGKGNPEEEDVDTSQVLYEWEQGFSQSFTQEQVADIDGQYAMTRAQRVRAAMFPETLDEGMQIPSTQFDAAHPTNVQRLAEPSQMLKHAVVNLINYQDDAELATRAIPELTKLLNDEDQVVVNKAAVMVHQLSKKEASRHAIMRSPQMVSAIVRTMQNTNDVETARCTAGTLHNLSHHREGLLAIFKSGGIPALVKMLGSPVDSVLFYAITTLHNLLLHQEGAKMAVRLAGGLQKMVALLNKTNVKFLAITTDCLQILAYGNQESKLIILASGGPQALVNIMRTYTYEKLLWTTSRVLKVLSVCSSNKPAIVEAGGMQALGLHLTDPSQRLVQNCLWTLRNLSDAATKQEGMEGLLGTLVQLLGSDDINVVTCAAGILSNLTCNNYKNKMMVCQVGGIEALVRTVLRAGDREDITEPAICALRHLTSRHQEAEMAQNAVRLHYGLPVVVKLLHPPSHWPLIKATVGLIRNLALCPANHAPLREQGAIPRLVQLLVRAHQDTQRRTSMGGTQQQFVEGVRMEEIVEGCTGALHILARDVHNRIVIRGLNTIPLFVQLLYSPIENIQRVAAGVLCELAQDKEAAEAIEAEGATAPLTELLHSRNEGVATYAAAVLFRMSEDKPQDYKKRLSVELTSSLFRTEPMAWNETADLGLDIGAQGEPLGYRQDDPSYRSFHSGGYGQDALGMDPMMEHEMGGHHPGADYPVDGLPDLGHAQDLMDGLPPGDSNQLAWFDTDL

pIC50: −log10 of the molar value.

In one assay the target is T1, beta-catenin/TCF4 (Homo sapiens, UniProt P35222).
T1 construct: expressed in transfected cells; host or cells: HEK293 cells
In words: Nano-BRET target engagement assay (HEK293 cells). Type of assay: cell-based.

The target in a further assay is beta-catenin (Homo sapiens, UniProt P35222). Kind of assay: fluorescence polarization binding to beta-catenin. Conditions: beta-Catenin FP IC50 (nM).

Regarding `CC(=O)N1CCC[C@]12CC=CCCCC1(CCCC=CCCCOC(=O)N3CC[C@@]4(C3)NC(=O)[C@H](CC(C)C)NC(=O)[C@H](Cc3ccccc3)NC(=O)[C@H](C)NC(=O)[C@H](CCCCNC(=O)C(C)(C)C(=O)NCCCC[C@@H](C(N)=O)NC(=O)[C@H](Cc3csc5ccccc35)NC(=O)[C@H](Cc3ccsc3)NC4=O)NC(=O)[C@H](Cc3cccc(C(=O)O)c3)NC(=O)[C@H](CC(=O)O)NC1=O)NC(=O)[C@H](CC(C)(C)C)NC(=O)[C@H](CC(=O)O)NC2=O` (stereo partly drawn) [I-47, Ac-PL3-Asp-Npg-B5-Asp-3COOHF-[Me2Mal]-Lys-Ala-Phe-Leu-PyrS2-3Thi-BztA-Lys-NH2], the pIC50 – broadly, the IC50 on a negative log10 scale, so that one unit is a factor of ten – against beta-catenin/TCF4 is less than 5.00. Moreover, the IC50 (commonly the midpoint of a concentration-inhibition curve) at beta-catenin is less than 50 nM.

In the case of `CC(=O)N1CCC[C@]12CC=CCCCC1(CCCC=CCCCOC(=O)N3CC[C@@]4(C3)NC(=O)[C@H](CC(C)C)NC(=O)[C@H](Cc3ccccc3)NC(=O)[C@H](C)NC(=O)[C@H](CCCCNC(=O)c3ccccc3-c3ccccc3C(=O)NCCCC[C@@H](C(N)=O)NC(=O)[C@H](Cc3csc5ccccc35)NC(=O)[C@H](Cc3ccsc3)NC4=O)NC(=O)[C@H](Cc3cccc(C(=O)O)c3)NC(=O)[C@H](CC(=O)O)NC1=O)NC(=O)[C@H](CC(C)(C)C)NC(=O)[C@H](CC(=O)O)NC2=O` (stereo partly drawn) [I-48, Ac-PL3-Asp-Npg-B5-Asp-3COOHF-[diphenate]-Lys-Ala-Phe-Leu-PyrS2-3Thi-BztA-Lys-NH2], on beta-catenin/TCF4, the pIC50 is less than 5.00. Also, the IC50 on beta-catenin is less than 50 nM.

Consider `CC(=O)N1CCC[C@]12CC=CCCCC1(CCCC=CCCCOC(=O)N3CC[C@@]4(C3)NC(=O)[C@H](CC(C)C)NC(=O)[C@H](Cc3ccccc3)NC(=O)[C@H](C)NC(=O)[C@H](CCCCNC(=O)c3cccc(c3)-c3cccc(c3)C(=O)NCCCC[C@@H](C(N)=O)NC(=O)[C@H](Cc3csc5ccccc35)NC(=O)[C@H](Cc3ccsc3)NC4=O)NC(=O)[C@H](Cc3cccc(C(=O)O)c3)NC(=O)[C@H](CC(=O)O)NC1=O)NC(=O)[C@H](CC(C)(C)C)NC(=O)[C@H](CC(=O)O)NC2=O` (stereo partly drawn) [I-49, Ac-PL3-Asp-Npg-B5-Asp-3COOHF-[Biphen33COOH]-Lys-Ala-Phe-Leu-PyrS2-3Thi-BztA-Lys-NH2], for which the pIC50 at beta-catenin/TCF4 is 5.00 to 5.52. Moreover, the IC50 on beta-catenin was 50 to 200 nM.

At beta-catenin/TCF4, `CC(=O)N1CCC[C@]12CC=CCCCC1(CCCC=CCCCOC(=O)N3CC[C@@]4(C3)NC(=O)[C@H](CC(C)C)NC(=O)[C@H](Cc3ccccc3)NC(=O)[C@H](C)NC(=O)[C@H](CCCCNC(=O)c3cccc(c3)C(=O)NCCCC[C@@H](C(N)=O)NC(=O)[C@H](Cc3csc5ccccc35)NC(=O)[C@H](Cc3ccccc3Cl)NC4=O)NC(=O)[C@H](Cc3cccc(C(=O)O)c3)NC(=O)[C@H](CC(=O)O)NC1=O)NC(=O)[C@H](CC(C)(C)C)NC(=O)[C@H](CC(=O)O)NC2=O` (stereo partly drawn) [I-50, Ac-PL3-Asp-Npg-B5-Asp-3COOHF-[isophthalate]-Lys-Ala-Phe-Leu-PyrS2-2ClF-BztA-Lys-NH2] showed a pIC50 of less than 5.00. At beta-catenin, this molecule showed a half-inhibitory concentration (IC50) of 50 to 200 nM.

Regarding `CC(=O)N1CCC[C@]12CC=CCCCC1(CCCC=CCCCOC(=O)N3CC[C@@]4(C3)NC(=O)[C@H](CC(C)C)NC(=O)[C@H](Cc3ccccc3)NC(=O)[C@H](C)NC(=O)[C@H](CCCCNC(=O)CCC(=O)NCCCC[C@@H](C(N)=O)NC(=O)[C@H](Cc3csc5ccccc35)NC(=O)[C@H](Cc3ccccc3Cl)NC4=O)NC(=O)[C@H](Cc3cccc(C(=O)O)c3)NC(=O)[C@H](CC(=O)O)NC1=O)NC(=O)[C@H](CC(C)(C)C)NC(=O)[C@H](CC(=O)O)NC2=O` (stereo partly drawn) [I-51, Ac-PL3-Asp-Npg-B5-Asp-3COOHF-[succinate]-Lys-Ala-Phe-Leu-PyrS2-2ClF-BztA-Lys-NH2], the pIC50 on beta-catenin/TCF4 was 5.00 to 5.52. At beta-catenin, the IC50 is less than 50 nM.

Turning to `CC(=O)N1CCC[C@]12CC=CCCCC1(CCCC=CCCCOC(=O)N3CC[C@@]4(C3)NC(=O)[C@H](CC(C)C)NC(=O)[C@H](Cc3ccccc3)NC(=O)[C@H](C)NC(=O)[C@H](CCCCNC(=O)C(C)(C)C(=O)NCCCC[C@@H](C(N)=O)NC(=O)[C@H](Cc3csc5ccccc35)NC(=O)[C@H](Cc3ccccc3Cl)NC4=O)NC(=O)[C@H](Cc3cccc(C(=O)O)c3)NC(=O)[C@H](CC(=O)O)NC1=O)NC(=O)[C@H](CC(C)(C)C)NC(=O)[C@H](CC(=O)O)NC2=O` (stereo partly drawn) [I-52, Ac-PL3-Asp-Npg-B5-Asp-3COOHF-[Me2Mal]Lys-Ala-Phe-Leu-PyrS2-2ClF-BztA-Lys-NH2], the pIC50 at beta-catenin/TCF4 was less than 5.00. This molecule also registered an IC50 on beta-catenin of less than 50 nM.

Regarding `CC(=O)N1CCC[C@]12CC=CCCCC1(CCCC=CCCCOC(=O)N3CC[C@@]4(C3)NC(=O)[C@H](CC(C)C)NC(=O)[C@H](Cc3ccccc3)NC(=O)[C@H](C)NC(=O)[C@H](CCCCNC(=O)c3ccccc3-c3ccccc3C(=O)NCCCC[C@@H](C(N)=O)NC(=O)[C@H](Cc3csc5ccccc35)NC(=O)[C@H](Cc3ccccc3Cl)NC4=O)NC(=O)[C@H](Cc3cccc(C(=O)O)c3)NC(=O)[C@H](CC(=O)O)NC1=O)NC(=O)[C@H](CC(C)(C)C)NC(=O)[C@H](CC(=O)O)NC2=O` (stereo partly drawn) [I-53, Ac-PL3-Asp-Npg-B5-Asp-3COOHF-[diphenate]Lys-Ala-Phe-Leu-PyrS2-2ClF-BztA-Lys-NH2], the pIC50 against beta-catenin/TCF4 was less than 5.00. On beta-catenin, this molecule came in with an IC50 of 50 to 200 nM.

At beta-catenin/TCF4, `CC(=O)N1CCC[C@]12CC=CCCCC1(CCCC=CCCCOC(=O)N3CC[C@@]4(C3)NC(=O)[C@H](CC(C)C)NC(=O)[C@H](Cc3ccccc3)NC(=O)[C@H](C)NC(=O)[C@H](CCC(=O)N3CCC5(CCN(CC5)C(=O)CC[C@@H](C(=O)N[C@@H](C)C(N)=O)NC(=O)[C@H](Cc5csc6ccccc56)NC(=O)[C@H](Cc5ccccc5C(F)(F)F)NC4=O)CC3)NC(=O)[C@H](Cc3cccc(C(=O)O)c3)NC(=O)[C@H](CC(=O)O)NC1=O)NC(=O)[C@H](CC(C)(C)C)NC(=O)[C@H](CC(=O)O)NC2=O` (stereo partly drawn) [I-130, Ac-PL3-Asp-Npg-B5-Asp-3COOHF-GlnR-Ala-Phe-Leu-PyrS2-2F3MeF-BztA-[39N2spiroundecane]GlnR-Ala-NH2] showed a negative-log IC50 (pIC50) of less than 5.00. On beta-catenin, the IC50 was in the range of 50 to 200 nM.

Consider `CC(=O)N1CCC[C@]12CC=CCCCC1(CCCC=CCCCOC(=O)N3CC[C@@]4(C3)NC(=O)[C@H](CC(C)C)NC(=O)[C@H](Cc3ccccc3)NC(=O)[C@H](C)NC(=O)[C@H](CCC(=O)N3CCC5(CCCN(C5)C(=O)CC[C@@H](C(=O)N[C@@H](C)C(N)=O)NC(=O)[C@H](Cc5csc6ccccc56)NC(=O)[C@H](Cc5ccccc5C(F)(F)F)NC4=O)CC3)NC(=O)[C@H](Cc3cccc(C(=O)O)c3)NC(=O)[C@H](CC(=O)O)NC1=O)NC(=O)[C@H](CC(C)(C)C)NC(=O)[C@H](CC(=O)O)NC2=O` (stereo partly drawn) [I-131, Ac-PL3-Asp-Npg-B5-Asp-3COOHF-GlnR-Ala-Phe-Leu-PyrS2-2F3MeF-BztA-[29N2spiroundecane]GlnR-Ala-NH2], for which the pIC50 on beta-catenin/TCF4 was less than 5.00. On beta-catenin, this molecule showed an IC50 of 200 to 750 nM.

On to `CC(=O)N1CCC[C@]12CC=CCCCC1(CCCC=CCCCOC(=O)N3CC[C@@]4(C3)NC(=O)[C@H](CC(C)C)NC(=O)[C@H](Cc3ccccc3)NC(=O)[C@H](C)NC(=O)[C@H](CCC(=O)N3CCCC5(CCN(CC5)C(=O)CC[C@@H](C(=O)N[C@@H](C)C(N)=O)NC(=O)[C@H](Cc5csc6ccccc56)NC(=O)[C@H](Cc5ccccc5C(F)(F)F)NC4=O)C3)NC(=O)[C@H](Cc3cccc(C(=O)O)c3)NC(=O)[C@H](CC(=O)O)NC1=O)NC(=O)[C@H](CC(C)(C)C)NC(=O)[C@H](CC(=O)O)NC2=O` (stereo partly drawn) [I-132, Ac-PL3-Asp-Npg-B5-Asp-3COOHF-[29N2spiroundecane]GlnR-Ala-Phe-Leu-PyrS2-2F3MeF-BztA-GlnR-Ala-NH2], for which, at beta-catenin/TCF4, the pIC50 was less than 5.00. Further, on beta-catenin, the IC50 lay within 50 to 200 nM.

At beta-catenin/TCF4, `CC(=O)N1CCC[C@]12CCCCCCC1(CCCCCCCCOC(=O)N3CC[C@@]4(C3)NC(=O)[C@H](CC(C)C)NC(=O)[C@H](Cc3ccccc3)NC(=O)[C@H](C)NC(=O)[C@H](CCC(=O)N3CCC5(CCN(CC5)C(=O)CC[C@@H](C(=O)N[C@@H](C)C(N)=O)NC(=O)[C@H](Cc5csc6ccccc56)NC(=O)[C@H](Cc5ccccc5C(F)(F)F)NC4=O)CC3)NC(=O)[C@H](Cc3cccc(C(=O)O)c3)NC(=O)[C@H](CC(=O)O)NC1=O)NC(=O)[C@H](CC(C)(C)C)NC(=O)[C@H](CC(=O)O)NC2=O` (stereo partly drawn) [I-133, Ac-PL3-Asp-Npg-B5-Asp-3COOHF-GlnR-Ala-Phe-Leu-PyrS2-2F3MeF-BztA-[39N2spiroundecane]GlnR-Ala-NH2] gave a pIC50 of less than 5.00. The same molecule gave an IC50 on beta-catenin of 750 to 1000 nM.

Molecule `CC(=O)N1CCC[C@]12CCCCCCC1(CCCCCCCCOC(=O)N3CC[C@@]4(C3)NC(=O)[C@H](CC(C)C)NC(=O)[C@H](Cc3ccccc3)NC(=O)[C@H](C)NC(=O)[C@H](CCC(=O)N3CCC5(CCCN(C5)C(=O)CC[C@@H](C(=O)N[C@@H](C)C(N)=O)NC(=O)[C@H](Cc5csc6ccccc56)NC(=O)[C@H](Cc5ccccc5C(F)(F)F)NC4=O)CC3)NC(=O)[C@H](Cc3cccc(C(=O)O)c3)NC(=O)[C@H](CC(=O)O)NC1=O)NC(=O)[C@H](CC(C)(C)C)NC(=O)[C@H](CC(=O)O)NC2=O` (stereo partly drawn) [I-134, Ac-PL3-Asp-Npg-B5-Asp-3COOHF-GlnR-Ala-Phe-Leu-PyrS2-2F3MeF-BztA-[29N2spiroundecane]GlnR-Ala-NH2] gave a pIC50 against beta-catenin/TCF4 of less than 5.00. For the same molecule, the IC50 at beta-catenin fell in the range of 200 to 750 nM.

With `CC(=O)N1CCC[C@]12CCCCCCC1(CCCCCCCCOC(=O)N3CC[C@@]4(C3)NC(=O)[C@H](CC(C)C)NC(=O)[C@H](Cc3ccccc3)NC(=O)[C@H](C)NC(=O)[C@H](CCC(=O)N3CCCC5(CCN(CC5)C(=O)CC[C@@H](C(=O)N[C@@H](C)C(N)=O)NC(=O)[C@H](Cc5csc6ccccc56)NC(=O)[C@H](Cc5ccccc5C(F)(F)F)NC4=O)C3)NC(=O)[C@H](Cc3cccc(C(=O)O)c3)NC(=O)[C@H](CC(=O)O)NC1=O)NC(=O)[C@H](CC(C)(C)C)NC(=O)[C@H](CC(=O)O)NC2=O` (stereo partly drawn) [I-135, Ac-PL3-Asp-Npg-B5-Asp-3COOHF-[29N2spiroundecane]GlnR-Ala-Phe-Leu-PyrS2-2F3MeF-BztA-GlnR-Ala-NH2], the pIC50 against beta-catenin/TCF4 was less than 5.00. In addition, the IC50 at beta-catenin is greater than 1000 nM.
